Molecular target: T1, Murine COX II (Mus musculus, UniProt Q05769)
T1 construct: A 2.0 kb fragment containing the coding region; made in house; host or cells: SF9 insect cells (baculovirus, transfer vector pVL1393)
T1 sequence (Q05769 18-604): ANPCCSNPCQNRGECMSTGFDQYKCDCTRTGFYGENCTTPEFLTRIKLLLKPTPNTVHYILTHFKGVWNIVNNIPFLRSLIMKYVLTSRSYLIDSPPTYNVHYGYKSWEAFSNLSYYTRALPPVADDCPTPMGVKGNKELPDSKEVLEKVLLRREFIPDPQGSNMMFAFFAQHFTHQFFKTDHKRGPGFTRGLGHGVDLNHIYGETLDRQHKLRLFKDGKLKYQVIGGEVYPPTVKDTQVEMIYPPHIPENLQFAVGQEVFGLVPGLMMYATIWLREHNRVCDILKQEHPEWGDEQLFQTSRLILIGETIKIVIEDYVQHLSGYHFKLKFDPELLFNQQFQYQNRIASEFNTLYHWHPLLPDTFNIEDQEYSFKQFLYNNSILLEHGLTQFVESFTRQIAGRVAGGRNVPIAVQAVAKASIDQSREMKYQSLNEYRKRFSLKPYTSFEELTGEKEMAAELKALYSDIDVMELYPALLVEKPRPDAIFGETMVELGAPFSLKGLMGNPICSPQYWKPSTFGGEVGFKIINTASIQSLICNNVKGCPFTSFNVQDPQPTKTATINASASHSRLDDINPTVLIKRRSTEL
Assay: Assay for COX II activity in vitro (PGE2 ELISA, recombinant enzyme)
Type: biochemical
Details: read-out: Murine COX II ID50

SMILES: CS(=O)(=O)c1ccc(-c2csc(Br)c2-c2ccc(F)cc2)cc1 [Example 2, 4(4-Methylsulfonylphenyl)-3-(4-fluorophenyl)-2-bromothiophene]
- IC50: < 100 nM

From patent US20030013744A1, “3,4-diaryl thiophenes and analogs thereof having use as anti-inflammatory agents” (G.D. Searle & Co., priority 1993, published 2003)
